Measurements from patent US9176117B2, “Macrophage hazardous material detection” (dated 2015).

Tested on: Sentinel Cells (SC), stationary macrophages
Assay: Sentinel Cell responses to energetic materials by real-time multi-label light microscopy (DIC, H33342 DNA, MitoTracker, ER-Tracker)
Details: for Sentinel Cell responses to control agents: SC independently exposed to each control agent

Row | Compound | Sentinel Cell responses to control agents | primary Sentinel Cell responses observed (DMDNB at 5 nm in solution (88 ppt), FIGS. 9A-C)
1 | OCC(CO)(CO)CO | No responses are observed | –
2 | CC(C)([N+](=O)[O-])C(C)(C)[N+](=O)[O-] | – | pronounced lobed nucleus and nucleus with tines, arborized nucleus, highly condensed chromosomes, and significantly increased nuclear envelope breakdown, mitosis, and emerge from tissue
3 | C[S+](C)[O-] | No responses are observed | –
